Assay results: article PMC5224920, “Assessing the mechanism and therapeutic potential of modulators of the human Mediator complex-associated protein kinases” (eLife, 2016)

By UniProt entry, the sequences of proteins in these tests, tags left out. Where a name states a change or a piece, a line headed by the entry shows the natural chain unless it says otherwise.
UniProt Q9BWU1: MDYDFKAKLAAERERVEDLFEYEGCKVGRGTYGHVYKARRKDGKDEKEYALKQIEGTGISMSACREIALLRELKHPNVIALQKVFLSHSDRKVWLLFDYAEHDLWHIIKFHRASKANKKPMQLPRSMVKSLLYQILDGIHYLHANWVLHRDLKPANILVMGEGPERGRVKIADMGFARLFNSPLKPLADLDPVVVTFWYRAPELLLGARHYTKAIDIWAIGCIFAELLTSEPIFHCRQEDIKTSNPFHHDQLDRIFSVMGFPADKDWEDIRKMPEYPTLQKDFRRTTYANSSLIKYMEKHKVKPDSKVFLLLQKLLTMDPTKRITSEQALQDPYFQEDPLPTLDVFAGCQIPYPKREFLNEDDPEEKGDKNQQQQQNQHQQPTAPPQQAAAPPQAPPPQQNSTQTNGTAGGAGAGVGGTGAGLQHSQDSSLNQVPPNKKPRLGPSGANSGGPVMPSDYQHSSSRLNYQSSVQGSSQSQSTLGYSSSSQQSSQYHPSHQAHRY

Target: T1, CDK19 (Homo sapiens, UniProt Q9BWU1)
T1 construct: purchased Proteros Biostructures GmbH (Germany), assay service
Assay: CDK19 reporter displacement assay
Assay type: binding
Conditions: mean ± s.d. (at least three) or *± range (two repeats)

IC50: 30.4 ± 1.7 nM
Compound: CN1CCN(C(=O)c2ccc3cc(CCNc4ncnc5ccc(C#N)cc45)ccc3c2)CC1 [Senexin B, reference compound]
